Measured values reported in BindingDB's records for doi:10.1038/nchembio.421 (Novartis Institutes for BioMedical Research, 2010).

Biological target: T1, Farnesyl pyrophosphate synthase (Homo sapiens, UniProt P14324)
T1 sequence (P14324 whole entry): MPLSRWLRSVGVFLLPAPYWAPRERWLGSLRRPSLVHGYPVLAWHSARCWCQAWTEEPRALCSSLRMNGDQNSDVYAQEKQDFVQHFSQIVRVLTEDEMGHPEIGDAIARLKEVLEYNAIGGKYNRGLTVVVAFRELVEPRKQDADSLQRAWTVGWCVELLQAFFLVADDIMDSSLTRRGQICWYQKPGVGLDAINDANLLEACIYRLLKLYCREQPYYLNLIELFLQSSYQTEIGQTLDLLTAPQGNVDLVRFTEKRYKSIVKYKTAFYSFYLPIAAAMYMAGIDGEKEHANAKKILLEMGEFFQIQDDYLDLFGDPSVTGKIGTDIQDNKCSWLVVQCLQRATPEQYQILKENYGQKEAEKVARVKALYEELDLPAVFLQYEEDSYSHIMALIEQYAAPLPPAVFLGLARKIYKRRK
Assay: Biophysical assay
Details: pH 7.4; 23 °C

## O=C(O)Cc1c(C(=O)O)[nH]c2c(Cl)cc(Cl)cc12 [CID46398845]
  IC50: 6 µM

## O=C(O)Cc1c(C(=O)O)[nH]c2c(Cl)ccc(Cl)c12 [CID46398841]
  IC50: 2 µM
